Data published in US20140038181A1, “CHEMICALLY SUBSTITUTED THERMOSENSITIVE PROBES AND COFACTORS FOR HOT START LIGATION” (TRILINK BIOTECHNOLOGIES, priority 2011, published 2014).

Sequences of proteins named here, by UniProt entry; tags and fusion partners are left off. A change or cut given only in a name is not applied to a line headed by its entry.
UniProt P26996: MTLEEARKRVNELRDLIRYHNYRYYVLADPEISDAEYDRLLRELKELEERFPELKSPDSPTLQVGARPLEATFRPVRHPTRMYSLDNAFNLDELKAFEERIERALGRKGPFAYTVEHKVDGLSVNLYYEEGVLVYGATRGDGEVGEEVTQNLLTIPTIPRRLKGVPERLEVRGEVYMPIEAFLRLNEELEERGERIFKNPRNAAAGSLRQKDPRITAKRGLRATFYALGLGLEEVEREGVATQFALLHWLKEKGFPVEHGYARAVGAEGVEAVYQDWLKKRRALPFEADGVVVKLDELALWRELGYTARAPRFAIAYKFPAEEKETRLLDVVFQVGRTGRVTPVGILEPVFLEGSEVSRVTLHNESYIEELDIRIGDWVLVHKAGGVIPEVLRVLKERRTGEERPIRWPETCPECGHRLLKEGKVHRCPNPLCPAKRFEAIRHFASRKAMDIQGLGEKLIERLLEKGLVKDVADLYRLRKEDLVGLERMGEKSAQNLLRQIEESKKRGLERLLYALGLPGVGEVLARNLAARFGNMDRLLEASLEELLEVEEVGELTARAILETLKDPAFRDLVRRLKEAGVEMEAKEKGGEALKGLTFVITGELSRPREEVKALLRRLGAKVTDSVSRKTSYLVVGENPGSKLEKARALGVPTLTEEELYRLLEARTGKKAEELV
UniProt P00970: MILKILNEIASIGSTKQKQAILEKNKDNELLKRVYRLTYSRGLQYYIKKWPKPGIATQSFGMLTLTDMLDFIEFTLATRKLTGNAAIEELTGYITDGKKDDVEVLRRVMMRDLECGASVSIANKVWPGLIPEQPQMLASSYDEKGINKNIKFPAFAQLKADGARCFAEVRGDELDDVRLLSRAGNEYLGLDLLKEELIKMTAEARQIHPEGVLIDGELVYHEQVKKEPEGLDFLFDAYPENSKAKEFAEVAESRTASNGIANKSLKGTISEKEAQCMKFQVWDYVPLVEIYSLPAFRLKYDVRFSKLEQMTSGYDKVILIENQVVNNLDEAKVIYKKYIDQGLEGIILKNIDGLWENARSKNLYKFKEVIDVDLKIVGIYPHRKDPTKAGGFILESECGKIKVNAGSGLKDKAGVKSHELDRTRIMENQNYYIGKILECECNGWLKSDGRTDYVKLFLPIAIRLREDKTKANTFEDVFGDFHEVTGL

Tests used:
Taq DNA ligase = Taq DNA ligase (Thermus thermophilus, UniProt P26996); assay: Hot Start Real-Time LCR with TBE-substituted cofactor and PDE probes; conditions: 1 mM TBE-substituted NAD^+, PDE set 1+8+12+16, 20 units Taq DNA ligase, ligation 5 sec at 55° C., FIG. 18
T4 DNA ligase = T4 DNA ligase (Enterobacteria phage T4, UniProt P00970); conditions: 10 units T4 DNA ligase, room temperature 10 or 60 min

Row | Substance | template independent ligation (TIL) (Taq DNA ligase) | formation of ligation product (T4 DNA ligase; 1 mM cofactor not thermally treated, complementary template) | formation of ligation product (T4 DNA ligase; 1 mM cofactor thermally treated at 95° C. for 2 or 20 min before ligation)
1 | P^1-5′-{2′,3′-O-bis-[2-(tert-butoxy)]ethyl}-nicotinamide riboside-P^2-5′-adenosine pyrohosphate | substantially reduces template independent ligation |  | 
2 | 2′,3′-O-bis-[2-(tert-butoxy)]ethyl-adenosine-5′-triphosphate |  | only traces of ligation product | ample formation of 80(+)-mer ligation product

Where two headings read alike, the source gives them in different places.
